Experimental findings from PMC3188669 (Journal of medicinal chemistry, 2011) are described below.

The subject of the data set is Colon26 tumors. The following applies: mouse, in vivo, iv.

As to ^18F-fluoro-2-deoxyglucose [^18F-FDG], the “organ distribution (biodistribution)” value is “higher uptake in muscle and heart relative to tumor”.
